Source: patent US11028072B2, “2,4-diamino-6-ethylpyrimidine derivatives with antimalarial activities against Plasmodium falciparum” (National Science and Technology Development Agency, priority 2015, dated 2021)
pKi: −log10 of the molar value.

Chains of the proteins cited; added tags and fusions are not shown.
UniProt P00374, whole entry: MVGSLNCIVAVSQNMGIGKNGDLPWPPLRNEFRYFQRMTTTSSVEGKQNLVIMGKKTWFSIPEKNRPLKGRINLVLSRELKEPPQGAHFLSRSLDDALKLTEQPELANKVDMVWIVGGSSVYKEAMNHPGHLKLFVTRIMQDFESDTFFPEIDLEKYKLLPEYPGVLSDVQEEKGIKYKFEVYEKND

Target: Human dihydrofolate reductase (hDHFR) (Homo sapiens, UniProt P00374)
Test: Inhibition of human dihydrofolate reductase (Ki)
Format: biochemical
Conditions: read-out: Ki hDHFR; human DHFR; hydrochloride salts; tested form: HCl

SMILES: CCc1nc(N)nc(N)c1OCCCc1cn(Cc2cccc(C(=O)O)c2)nn1
- pKi: 7.02
